# Values quoted from earlier work, collected in patent US11096924B2, “Combination therapies using immuno-dash inhibitors and PGE2 antagonists” (Trustees of Tufts College, priority 2016, dated 2021).
# Settings: cited from earlier work
smiles,measurement,setting,value
"CC(C)[C@H](N)C(=O)N1CCC[C@H]1B(O)O [Val-boroPro, Valine-boroProline]",adverse events reported on treatment,"human, in vivo","immune-related adverse events (irAEs), including pneumonitis"
same,most commonly reported adverse event,"human, in vivo","edema/peripheral swelling, hypotension or dehydration/hypovolemia"
same,improvement in grade 3 neutropenia,"phase I trial, thirteen patients treated concomitantly with immunosuppressive chemotherapy",five patients showed improvement in grade 3 neutropenia
same,efficacy endpoints,phase II trials in combination with standard cytotoxic chemotherapy,did not meet the endpoints for efficacy
